{
  "source": "patent US20250281574A1",
  "about": "(priority 2022, published 2025)",
  "tested_on": "C57BL/6 mice fed ethanol",
  "assay": "Alcoholic lung syndrome mouse model with LPS lung injury, Evan's Blue permeability",
  "conditions": "alcoholic C57BL/6 mice; 5 mg/kg aerosolized aCT1 1 hour after intratracheal 5 mg/kg LPS",
  "note": "Peptide text beside a SMILES is read from it. * marks the point of attachment. Biotin = O=C1N[C@H]2[C@H](CS[C@H]2CCCCC(=O)*)N1; Ahx = NCCCCCC(=O)O",
  "data": [
    {"smiles": "CC[C@H](C)[C@H](NC(=O)[C@H](CCC(=O)O)NC(=O)[C@H](CC(C)C)NC(=O)[C@H](CC(=O)O)NC(=O)[C@H](CC(=O)O)NC(=O)[C@@H]1CCCN1C(=O)[C@H](CCCNC(=N)N)NC(=O)[C@@H]1CCCN1C(=O)[C@H](CCCNC(=N)N)NC(=O)[C@H](CCCCN)NC(=O)[C@H](CCCCN)NC(=O)[C@H](Cc1c[nH]c2ccccc12)NC(=O)[C@@H]1CCCN1C(=O)[C@H](CCCCN)NC(=O)[C@H](CCCNC(=N)N)NC(=O)[C@H](CCCNC(=N)N)NC(=O)[C@H](CC(N)=O)NC(=O)[C@@H]1CCCN1C(=O)[C@H](Cc1ccccc1)NC(=O)[C@H](Cc1c[nH]c2ccccc12)NC(=O)[C@@H](NC(=O)[C@H](CCCCN)NC(=O)[C@@H]1CCCN1C(=O)[C@H](CCC(N)=O)NC(=O)[C@H](CCCNC(=N)N)NC(=O)CCCCCNC(=O)CCCC[C@@H]1SC[C@@H]2NC(=O)N[C@@H]21)[C@@H](C)CC)C(=O)O", "note": "[aCT1] ({Biotin-Ahx}-RQPKIWFPNRRKPWKKRPRPDDLEI-OH; N-terminus and C-terminus assumed)", "values": [
      {"measurement": "pulmonary barrier permeability (Evan's Blue assay)", "result": "reduced pulmonary barrier permeability back to non-alcoholic levels"}
    ]}
  ]
}
